Activity calls are given as the source filed them.
Tests used:
[1] = biological target: T1, Protein cereblon/Epidermal growth factor receptor (Homo sapiens) (UniProt P00533+Q96SW2); assay: PROTAC activity at CRBN/wild type EGFR overexpressed in human OVCAR-8 cells assessed as EGFR degradation upto 10000 nM treated after 8 hrs under serum starvation condition and preincubated with 1 to 5 uM pictilisib measured for 2 hrs after 16 hrs of compound addition by Western blotting analysis; assay type: cell-based
[2] = tested on: Protein cereblon/Epidermal growth factor receptor (Homo sapiens), P00533+Q96SW2 [UNDEFINED MUTATION]; assay: Binding affinity to CRBN/EGFR mutant in human HCC827 cell lysate assessed as ternary complex formation by measuring EGFR pulldown at 100 nM measured after 16 hrs by CRBN antibody based co-immunoprecipitation assay; assay type: subcellular
[3] = biological target: T1, Protein cereblon/Epidermal growth factor receptor (Homo sapiens); assay: Binding affinity to CRBN/wild type EGFR in human OVCAR-8 cell lysate assessed as ternary complex formation by measuring CRBN pulldown at 1 uM pretreated with pictilisib for 2 hrs followed by compound addition measured after 16 hrs by EGFR antibody based co-immunoprecipitation assay; assay type: subcellular
[4] = biological target: T1, Protein cereblon/Epidermal growth factor receptor (Homo sapiens); assay: Binding affinity to CRBN/wild type EGFR in human NCI-H1299 cell lysate assessed as ternary complex formation by measuring CRBN pulldown at 1 uM pretreated with pictilisib for 2 hrs followed by compound addition measured after 16 hrs by EGFR antibody based co-immunoprecipitation assay; assay type: subcellular
[5] = biological target: T1, Protein cereblon/Epidermal growth factor receptor (Homo sapiens); assay: Binding affinity to CRBN/wild type EGFR in human OVCAR-8 cell lysate assessed as ternary complex formation by measuring EGFR pulldown at 1 uM pretreated with pictilisib for 2 hrs followed by compound addition measured after 16 hrs by CRBN antibody based co-immunoprecipitation assay; assay type: subcellular
[6] = biological target: T1, Protein cereblon/Epidermal growth factor receptor (Homo sapiens); assay: Binding affinity to CRBN/wild type EGFR in human NCI-H1299 cell lysate assessed as ternary complex formation by measuring EGFR pulldown at 1 uM pretreated with pictilisib for 2 hrs followed by compound addition measured after 16 hrs by CRBN antibody based co-immunoprecipitation assay; assay type: subcellular
[7] = biological target: T2, von Hippel-Lindau disease tumor suppressor/Epidermal growth factor receptor (Homo sapiens, UniProt P00533+P40337); assay: PROTAC activity at VHL/wild type EGFR overexpressed in human OVCAR-8 cells assessed as EGFR degradation upto 10000 nM treated after 8 hrs under serum starvation condition and preincubated with pictilisib for 2 hrs measured after 16 hrs of compound addition by Western blotting analysis; assay type: cell-based
[8] = biological target: T2, von Hippel-Lindau disease tumor suppressor/Epidermal growth factor receptor; assay: PROTAC activity at VHL/wild type EGFR overexpressed in human OVCAR-8 cells assessed as EGFR degradation upto 10000 nM treated after 8 hrs under serum starvation condition and preincubated with 1 to 5 uM pictilisib for 2 hrs measured after 16 hrs of compound addition by Western blotting analysis; assay type: cell-based
[9] = tested on: von Hippel-Lindau disease tumor suppressor/Epidermal growth factor receptor (Homo sapiens), P00533+P40337 [UNDEFINED MUTATION]; assay: Binding affinity to VHL/EGFR mutant in human HCC827 cell lysate assessed as ternary complex formation by measuring EGFR pulldown at 100 nM measured after 16 hrs by VHL antibody based co-immunoprecipitation assay; assay type: subcellular
[10] = biological target: T2, von Hippel-Lindau disease tumor suppressor/Epidermal growth factor receptor; assay: Binding affinity to VHL/wild type EGFR in human OVCAR-8 cell lysate assessed as ternary complex formation by measuring VHL pulldown at 1 uM pretreated with pictilisib for 2 hrs followed by compound addition measured after 16 hrs by EGFR antibody based co-immunoprecipitation assay; assay type: subcellular
[11] = biological target: T2, von Hippel-Lindau disease tumor suppressor/Epidermal growth factor receptor; assay: Binding affinity to VHL/wild type EGFR in human NCI-H1299 cell lysate assessed as ternary complex formation by measuring VHL pulldown at 1 uM pretreated with pictilisib for 2 hrs followed by compound addition measured after 16 hrs by EGFR antibody based co-immunoprecipitation assay; assay type: subcellular
[12] = biological target: T2, von Hippel-Lindau disease tumor suppressor/Epidermal growth factor receptor; assay: Binding affinity to VHL/wild type EGFR in human OVCAR-8 cell lysate assessed as ternary complex formation by measuring EGFR pulldown at 1 uM pretreated with pictilisib for 2 hrs followed by compound addition measured after 16 hrs by VHL antibody based co-immunoprecipitation assay; assay type: subcellular
[13] = biological target: T2, von Hippel-Lindau disease tumor suppressor/Epidermal growth factor receptor; assay: Binding affinity to VHL/wild type EGFR in human NCI-H1299 cell lysate assessed as ternary complex formation by measuring EGFR pulldown at 1 uM pretreated with pictilisib for 2 hrs followed by compound addition measured after 16 hrs by VHL antibody based co-immunoprecipitation assay; assay type: subcellular

Sequences of proteins named here, by UniProt entry; tags and fusion partners are left off.
UniProt Q96SW2, whole entry, looked up, stated change not applied: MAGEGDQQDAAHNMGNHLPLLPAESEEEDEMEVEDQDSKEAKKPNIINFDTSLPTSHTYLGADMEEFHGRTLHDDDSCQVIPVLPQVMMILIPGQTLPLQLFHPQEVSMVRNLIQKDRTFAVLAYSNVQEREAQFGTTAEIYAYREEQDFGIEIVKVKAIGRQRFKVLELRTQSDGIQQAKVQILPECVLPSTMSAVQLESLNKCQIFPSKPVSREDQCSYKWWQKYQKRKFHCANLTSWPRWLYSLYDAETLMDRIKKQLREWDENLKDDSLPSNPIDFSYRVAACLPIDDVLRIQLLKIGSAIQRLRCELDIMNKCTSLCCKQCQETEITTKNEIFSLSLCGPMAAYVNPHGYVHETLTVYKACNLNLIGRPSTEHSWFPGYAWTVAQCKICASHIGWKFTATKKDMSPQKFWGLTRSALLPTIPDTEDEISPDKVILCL
UniProt P40337, whole entry, looked up: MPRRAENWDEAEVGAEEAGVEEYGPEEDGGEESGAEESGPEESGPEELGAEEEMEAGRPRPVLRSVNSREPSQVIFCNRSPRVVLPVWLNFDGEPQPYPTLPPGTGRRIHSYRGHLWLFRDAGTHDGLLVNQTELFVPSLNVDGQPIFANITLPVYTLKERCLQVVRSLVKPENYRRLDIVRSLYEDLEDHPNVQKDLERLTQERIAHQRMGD

Measured: Activity

COc1cc2ncnc(Nc3ccc(F)c(Cl)c3)c2cc1OCCCN1CCN(CCC(=O)NCCCCCCCCOc2cccc3c2C(=O)N(C2CCC(=O)NC2=O)C3)CC1 (stereo not drawn)
active: [1] | [2] | [3] | [4] | [5] | [6]

COc1cc2ncnc(Nc3ccc(F)c(Cl)c3)c2cc1OCCCN1CCN(C(=O)CCCCCCCCCC(=O)N[C@H](C(=O)N2C[C@H](O)C[C@H]2C(=O)NCc2ccc(-c3scnc3C)cc2)C(C)(C)C)CC1
active: [7] | [8] | [9] | [10] | [11] | [12] | [13]
